This is an account of results in ChEMBL document CHEMBL4507301, “Data for DCP probe (R)-9s” (2021).

Protein sequences, listed by entry. Tags and fused reporters are not part of them.
UniProt P18089, whole entry: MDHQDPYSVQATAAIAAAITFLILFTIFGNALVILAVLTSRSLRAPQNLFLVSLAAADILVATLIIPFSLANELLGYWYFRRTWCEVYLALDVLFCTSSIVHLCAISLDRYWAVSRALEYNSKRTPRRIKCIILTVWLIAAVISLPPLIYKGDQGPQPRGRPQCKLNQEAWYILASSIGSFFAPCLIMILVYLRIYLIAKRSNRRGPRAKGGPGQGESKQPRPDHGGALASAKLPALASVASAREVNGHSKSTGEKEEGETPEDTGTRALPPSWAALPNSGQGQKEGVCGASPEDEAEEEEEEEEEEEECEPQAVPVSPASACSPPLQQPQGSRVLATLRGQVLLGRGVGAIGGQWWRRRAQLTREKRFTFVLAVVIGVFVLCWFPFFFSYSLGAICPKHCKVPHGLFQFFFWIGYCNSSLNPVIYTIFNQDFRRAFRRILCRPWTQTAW

Assay [1] concerns the target Alpha-2B adrenergic receptor (Homo sapiens, UniProt P18089). To be noted: Compound concentration 10.0 uM.
Assay [2] has as its target T1, Alpha-1A adrenergic receptor (Homo sapiens) (UniProt P35348).
T1 sequence (whole entry): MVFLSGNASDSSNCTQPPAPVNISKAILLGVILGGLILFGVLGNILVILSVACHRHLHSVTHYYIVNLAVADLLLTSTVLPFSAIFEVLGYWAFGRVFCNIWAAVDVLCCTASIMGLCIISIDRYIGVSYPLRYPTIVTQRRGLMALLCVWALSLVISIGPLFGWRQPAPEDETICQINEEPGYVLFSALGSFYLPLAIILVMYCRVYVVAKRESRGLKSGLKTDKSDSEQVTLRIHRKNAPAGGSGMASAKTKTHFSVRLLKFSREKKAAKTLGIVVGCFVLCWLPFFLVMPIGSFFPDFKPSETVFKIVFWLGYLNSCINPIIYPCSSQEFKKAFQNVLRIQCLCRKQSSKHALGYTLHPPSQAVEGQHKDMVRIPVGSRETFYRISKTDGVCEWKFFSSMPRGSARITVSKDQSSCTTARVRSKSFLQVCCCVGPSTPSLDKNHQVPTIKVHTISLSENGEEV
To be noted: Compound concentration 10.0 uM.

Structures are written as SMILES.

The term inhibition denotes the share of the control response that was lost under treatment.

Take `C[C@H](c1cccc(C#N)c1)n1cc(Cl)cc(C(N)=O)c1=N` [(R)-9s]: the inhibition in assay [1] was 80.1%; in assay [2] it was 83.9%.
